# GRP78 ERSR act – inducers of ER stress response in human glioma cells | U87-MG GRP78 promoter luciferase reporter, 16 h | AID 602332 | Potency, µM, usual class: activators | 420,000 tested, 0.02% active; also: series mostly up to about 76 µM; nearly all actives have a fitted effect of over 35% in size
#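 Stably transfected U87-MG glioma cells carrying a GRP78-based luciferase sensor; 16 h compound incubation. Luminescence end-point read 10 min after Bright-Glo addition at room temperature.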
# Nrf2 inh – inhibitors of Nrf2 signaling; Potency, µM (top dose mostly 46 µM), usual class: inhibitors; 360,000 tested, 2.1% active; A549 ARE-Fluc reporter, luciferase luminescence, 18-24 h; also: nearly all actives have a fitted effect of over 60% in size
#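 Cells were seeded and rested 2 h, then exposed to compounds for 18-24 h. CellTiter-Fluor was read first as a viability measure. BugLite was added 15 min before the final luminescent read of ARE-luciferase activity in A549 cells.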
# miR-21 reporter – raises the signal of a miR-21 reporter | HeLa miR-21 FLuc reporter, luciferase, 48 h | Potency, µM (doses to about 38.3 µM) | 340,000 tested, under 10 active | AID 2288; active = well fitted rising curve with a large enough effect; inconclusive = small, poorly fitted or top-dose-only effect; inactive = no such curve, though single readings can be large or run the other way;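 also: miR-21 action dims this reporter so a rising signal means less miR-21 action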
#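 HeLa miR-21-FLuc reporter line, endogenous miR-21; 2000 cells/well in DMEM/10% FBS; compound titration up to ~40uM final, 48 h, 37 degree Celsius; luciferase detection reagent, 15 min lysis, CCD luminescence.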
# TSG101-PTAP inh – blocks PTAP/TSG101 interaction to inhibit HIV-1 budding; Q99816; Fluorescence polarization, FITC-PTAP peptide / Tsg101 binding; Potency, µM (series often up to 115 µM), actives largely listed as inhibitors; 340,000 tested, under 10 active; active = well fitted inhibition curve with a large enough effect in the main read-out, with a control signal flat, not every such curve was filed as active; inconclusive = small, poorly fitted or top-dose-only effect, or effect the other way, or a change in a side signal; inactive = no such curve, though single readings can be large or run the other way
#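 Compounds were pin-transferred onto Tsg101 binding domain (10 uM final) in HEPES pH 7.5 buffer, then FITC-PTAP peptide was added at 50 nM final. After 20 min at RT, polarization reported peptide displacement across a qHTS concentration series.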
# Nrf2 activator – activators of Nrf2 (ARE) signaling. AREc32 ARE-luciferase reporter (MCF7-derived line), luminescence, 24 h. Potency, µM (titrated, usually from 46.1 µM), hits mostly activators. 410,000 tested, 0.31% active; also: nearly all actives have a fitted effect of over 65% in size
#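 Nrf2 activation is followed as ARE-luciferase induction in the AREc32 line after one day of compound treatment; luminescence is read with Steady-Glo.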
# A549 tox – counter-screen for Nrf2 inhibitors: cytotoxicity in A549 cells. A549 ARE-Fluc cells, CellTiter-Fluor viability, 18-24 h. Potency, µM (doses to about 46 µM), most hits filed as inhibitors. 390,000 tested, 0.16% active. AID 504648
#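 A549 ARE_Fluc cells in 5% FBS OPTI-MEM were exposed to compounds in concentration-response for 18-24 h at 37 deg C. Viability was read by CellTiter-Fluor fluorescence (Ex 405/Em 525) after 30 min, before the luciferase read.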
# Numbers stand for hits; i = inactive; ? = inconclusive; nt = no result given. Rows were chosen to be rich in hits. Some 2.1% of all compounds tested hit in one or more screens of this group. Unless noted, calls follow the shape of the dose curve; as a rule, active = well fitted curve in the direction sought with a large enough effect; inconclusive = small, poorly fitted or top-dose-only effect, or another doubt; inactive = no such curve, though single readings can be large; an effect the other way counts as inactive or inconclusive.
SMILES,GRP78 ERSR act,Nrf2 inh,miR-21 reporter,TSG101-PTAP inh,Nrf2 activator,A549 tox
OCCNc1nc(Nc2ccc(Br)cc2)nc2ccccc12,?,?,i,i,i,i
OCCNc1nc(Nc2ccccc2)nc2ccccc12,32µM,i,i,i,i,i
O=c1[nH]/c(=C/c2ccc3c(c2)OCO3)c(=O)[nH]/c1=C/c1ccc2c(c1)OCO2,i,nt,nt,nt,nt,nt
O=c1[nH]c2ccccc2c2nc3ccccn3c12,i,i,i,i,i,i
O=c1nc2c(O)cccn2c2c1c(=O)[nH]c1ccccc12,i,i,i,?,5.6µM,i
O=C(O)c1ccc(N/N=C/c2c[nH]c3ccccc23)cc1,i,?,i,i,i,i
Fc1c(F)c(F)c(N/N=C/c2c[nH]c3ccccc23)c(F)c1F,i,i,i,i,13µM,i
COC(=O)c1c(NC(=O)c2ccco2)sc(C(=O)N(C)C)c1C,i,i,i,i,13µM,i
COC(=O)c1c(NC(=O)c2cccnc2)sc(C(=O)N(C)C)c1C,i,?,i,i,i,i
CCOC(=O)N1CCN(Cc2ccc3c(c2)CN(C(=O)c2ccc4ncccc4c2)CCO3)CC1,i,nt,nt,nt,nt,nt
COc1ccc(-c2cc(C)nc(SCC(=O)c3cccc([N+](=O)[O-])c3)n2)cc1,i,21µM,i,i,i,i
CCC1CN(CC(=O)NC(C)c2cn(C)nc2C)Cc2cc(OC)ccc2O1 (configuration not stated),i,nt,nt,nt,nt,nt
CC(=O)Nc1ccc(S(=O)(=O)N2CCN(S(=O)(=O)c3ccc4c(c3)OCCO4)CC2)cc1,nt,?,nt,nt,nt,i
COc1ccccc1NC(=O)C(NC(=O)OC(C)(C)C)C(C)OCc1ccccc1 (configuration not stated),i,23µM,i,i,i,i
COc1ccccc1NC(=O)NCCc1ccccc1,i,i,i,i,i,i
O=C(Nc1ccc(Cl)c(Cl)c1)N1N=CCC1c1ccccc1 (configuration not stated),i,16µM,i,i,i,?
CCOc1ccc(CN(C)C(=O)c2ccc3c(c2)NC(=O)C(C)S3)cc1OC (configuration not stated),i,16µM,nt,i,i,i
CCN1/C(=C/c2ccc3ccccc3[n+]2CCCS(=O)(=O)[O-])C=Cc2cc(C)ccc21,i,i,i,i,i,?
CCN1/C(=C/c2ccc3ccccc3[n+]2CC)C=Cc2ccccc21,i,2.9µM,?,?,i,9.2µM
CCCCCCCCCC[n+]1ccc(/C=C/c2c(C)[nH]c3ccccc23)c2ccccc21,i,nt,nt,nt,nt,nt
CC1CN(S(=O)(=O)c2cccc(C(=O)NN3CCN(C)CC3)c2)CC(C)O1 (configuration not stated),i,i,i,i,i,i
CC1CN(S(=O)(=O)c2cccc(C(=O)Nc3ccc4c(c3)CCC4)c2)CC(C)O1 (configuration not stated),i,23µM,i,i,i,i
COc1ccc(C(=O)N(Cc2ccco2)Cc2ccco2)c(O)c1,nt,i,nt,nt,nt,i
O=C(c1ccc2c(c1)N(Cc1ccc(F)cc1)C(=O)c1ccccc1S2=O)N1CCC(Cc2ccccc2)CC1 (configuration not stated),i,23µM,?,nt,i,i
COc1cc(=O)n2c(c1C(=O)NC(C)c1ccco1)CCN(Cc1ccccc1Cl)CC2 (configuration not stated),i,nt,nt,nt,nt,nt
SMILES,GRP78 ERSR act,Nrf2 inh,miR-21 reporter,TSG101-PTAP inh,Nrf2 activator,A549 tox
COc1ccc2c(c1)c1nc3ccccc3nc1n2CC(=O)OC(C)C,i,4.6µM,i,i,i,i
CNc1ccc(Br)cc(C(=O)/C=C/c2ccc(Cl)cc2Cl)c1=O,i,?,i,i,8.9µM,21µM
Cc1ccc(NC(=S)NC2CCSc3ccccc32)cc1C (configuration not stated),i,23µM,i,i,i,i
COc1cc(-c2nc(C)cnc2C)cc2c1OCCN(C(=O)Cc1cc(OC)c(OC)c(OC)c1)C2,i,nt,nt,nt,nt,nt
COc1ccc(C2c3c(ncn(CCCO)c3=N)Oc3ccc4ccccc4c32)cc1 (configuration not stated),i,?,i,i,i,i
N=c1c2c(ccn1CCCc1ccccc1)Oc1ccc3ccccc3c1C2c1ccccc1 (configuration not stated),nt,15µM,nt,nt,nt,15µM
N=c1c2c(ccn1-c1ccccc1)Oc1ccc3ccccc3c1C2c1ccccc1 (configuration not stated),nt,16µM,nt,nt,nt,?
COc1ccccc1C(=O)N1CCOc2ccc(CN3CCN(Cc4ccccn4)CC3)cc2C1,i,nt,nt,nt,nt,nt
CCOC(=O)c1c(NC(=O)/C=C/C(=O)O)sc(C)c1-c1ccc(C(C)(C)C)cc1,i,?,?,i,?,i
Cc1sc(NC(=O)/C=C/C(=O)O)c(C(N)=O)c1-c1ccc(C(C)(C)C)cc1,i,i,i,i,13µM,i
O=C(Nc1ccc([N+](=O)[O-])cc1)c1ccc(Cn2cc([N+](=O)[O-])cn2)cc1,i,18µM,i,i,i,i
CCOc1ccc(C(=O)Nc2cnn(Cc3ccc(Cl)c(Cl)c3)c2)cc1,i,23µM,i,i,i,?
O=C(Nc1ccncc1)c1ccc(-c2ccccc2)cc1,i,2.3µM,i,i,i,i
O=C(Nc1ccc(Nc2ccncc2)cc1)c1ccc([N+](=O)[O-])cc1,i,18µM,i,i,i,i
Brc1ccc(/C=C2\C=Cc3ccccc32)cc1,i,nt,nt,nt,nt,nt
Cc1c(C(=O)O)c(O)cc2c1C(=O)c1c(O)c([C@@H]3O[C@H](CO)[C@@H](O)[C@H](O)[C@H]3O)c(O)c(O)c1C2=O,i,?,nt,?,i,21µM
Cn1c(=O)c2cc(C(=O)NC3CCCCCC3)sc2c2ccccc21,i,18µM,i,nt,i,?
CCn1c(=O)c2cc(C(=O)NC3CCCCCC3)sc2c2ccccc21,i,?,i,nt,i,i
CNc1nc(N/N=C/c2cc3c(cc2[N+](=O)[O-])OCO3)nc(Nc2ccccc2)n1,i,18µM,?,i,i,?
COc1ccccc1C(=O)N[C@@H]1c2ccccc2C2(CCN(Cc3ccc4c(c3)OCO4)CC2)[C@H]1O,i,nt,nt,nt,nt,nt
CC1CCC(C(=O)NC(C(=O)OCC(=O)c2ccccc2)C(C)C)CC1 (configuration not stated),i,16µM,i,nt,i,i
CC(C)c1ccc(NS(=O)(=O)c2ccc(Cl)nc2)cc1,i,i,i,i,i,i
O=[N+]([O-])c1cc(NS(=O)(=O)c2ccc(Cl)nc2)ccc1Cl,i,16µM,nt,i,i,?
OCCN1CCN(Cc2ccc3c(c2)CN(Cc2cccn2-c2ccccn2)CCO3)CC1,i,nt,nt,nt,nt,nt
Oc1ccccc1-c1nc(NCc2cccnc2)c2ccccc2n1,i,12µM,i,i,i,?
